Source: PubChem BioAssay (National Center for Advancing Translational Sciences (NCATS))
The entries come from a sample that favours hits as a whole.
Rango dissoc inh = prevents RanGTP from dissociating the Rango-importin beta complex. Potency, µM (doses to about 46.1 µM), inactives show at the highest dose activity change, negative = inhibition. 340,000 tested, 0.071% active. O95149+P62826. Biochemical FRET Rango-importin beta, RanGTP-induced dissociation. AID 540253; note: potency is the fitted concentration of half-maximal effect; % of control where 0% means no effect; nearly all actives have a fitted effect of over 45% in size
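Compounds sat 5 min at room temperature with 0.1 uM Rango biosensor plus 0.25 uM importin beta, then FRET pre-read. RanGTP-RCC1 (0.6 uM Ran, 2mM GTP, 0.2 uM RCC1) added for 45 min, and the CFP/YFP post-read measured blocked complex dissociation.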
CBFb RUNX1 block = inhibitors of human CBF-beta and RUNX1 interaction; Potency, µM (doses to about 59.8 µM), without a hit: at the top dose activity, negative = inhibition, actives largely listed as inhibitors; 230,000 tested, under 10 active; AlphaScreen CBFb-His/RUNX1-biotin binding, biochemical; AID 1477; Q01196+Q13951; active = well fitted curve in the direction sought with a large enough effect; inconclusive = small, poorly fitted or top-dose-only effect, or effect the other way, or another doubt; inactive = no such curve, though single readings can be large or run the other way; note: % of control where 0% means no effect
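AlphaScreen proximity signal reports loss of binding between His-tagged CBF-beta and biotin-labelled RUNX1, each at 30 nM. Proteins are pre-associated for 20 minutes, compounds added for 15 minutes, then beads for 90 minutes, all at ambient temperature.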
ClpP mod = qHTS Assay for Activators of ClpP; purified B. subtilis ClpP, FRET peptide cleavage, 20 min; Potency, µM (doses to about 57.5 µM), inactives show at the top dose activity change, negative = active; 340,000 tested, 1.9% active; active = well fitted falling curve with a large enough effect; inconclusive = small, poorly fitted or top-dose-only effect; inactive = no such curve, though single readings can be large or run the other way; note: potency is the fitted concentration of half-maximal effect; the source files actives as falling curves though it sought activators and does not explain the sign; nearly all actives have a fitted effect of over 65% in size
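Buffer: 100 mM Tris/HCl pH8, 100 mM KCl, 0.05% low protease BSA, 2.5% glycerol, 0.01% Tween-20. ClpP 10 microg/mL final; 20 min RT; delta FRET normalized to ADEP and DMSO controls.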
MBNL1 CUG block = inhibitors of human MBNL1 binding to CUG repeat RNA | Q9NR56 | TR-FRET MBNL1-His/biotin-(CUG)12 binding, 665/545 ratio | Potency, µM (series often up to 57.5 µM), inactives show at the highest dose activity change, negative = inhibition, most hits filed as inhibitors | 280,000 tested, 0.036% active; active = well fitted inhibition curve with a large enough effect in the signal ratio, with a control signal flat, not every such curve was filed as active; inconclusive = small, poorly fitted or top-dose-only effect, or effect the other way, or a change in a side signal; inactive = no such curve, though single readings can be large or run the other way; the % refers to the signal ratio; note: potency is the fitted concentration of half-maximal effect; % is set by controls: 0 for no effect and ±100 for the full control effect
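TR-FRET readout: Ex 340 nm, 665/545 nm emission ratio, normalized to buffer-only (basal) and MBNL1-(CUG)12 controls. Complex of MBNL1-His with Biotin-(CUG)12, compounds 92 nM–58 uM, incubated 60 min at room temperature.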
Rango-impB inh = Rango-importin beta binding inhibition | Q14974 | Rango CFP/YFP FRET sensor + importin beta, 45 min | Potency, µM (top dose mostly 92.2 µM), for the others: at the highest dose inhibition of complex formation | 340,000 tested, 0.031% active | AID 540263;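 note: potency is the fitted concentration of half-maximal effect; 0% = DMSO wells and 100% = buffer wells lacking importin beta; nearly all actives have a fitted effect of over 15% in size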
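Inhibition scored from the CFP 486 nm/YFP 530 nm FRET ratio 45 min after adding 0.125 microM importin beta to 50 nM Rango biosensor preincubated 5 min with compound (room temperature, PBS with DTT, Tween-20, BSA). No-importin wells as positive control.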
Starred values were filed as active, the others as inactive; u = inconclusive; x = no result. Unless noted, calls come from the whole dose curve.

Codes – A = Rango dissoc inh; B = CBFb RUNX1 block; C = ClpP mod; D = MBNL1 CUG block; E = Rango-impB inh
#1 Cc1cc(C)c(C#N)c(N2CCCC(C(N)=O)C2)n1 (stereo unspecified)
  A = -6.2% | B = 1.5% | C = 3.55µM* | D = -2.0% | E = 2.1%

#2 CCOC(=O)C1CCN(c2nc(C)cc(C)c2C#N)CC1
  A = 5.4% | B = 5.7% | C = x | D = -8.2% | E = 1.4%

#3 CCCCC/C=C\C=C\C(O)CCCCCCCC(=O)O (stereo unspecified)
  A = x | B = 3.6% | C = x | D = x | E = x

#4 N#Cc1c(N)nc(SCC(=O)OCc2ccccc2)c(C#N)c1-c1ccco1
  A = u | B = 1.0% | C = -29.8% | D = 10.5% | E = u

#5 CCCOC(=O)CSc1nc(N)c(C#N)c(-c2ccco2)c1C#N
  A = -13.1% | B = x | C = 25.1µM* | D = x | E = u

#6 O=C(Cc1ccc(-c2ccccc2)cc1)NO
  A = x | B = x | C = -4.3% | D = x | E = x

#7 CN(C)S(=O)(=O)c1ccc(C(=O)Nc2nnc(Cc3ccccc3)s2)cc1
  A = -13.5% | B = 4.1% | C = 22.4µM* | D = 1.9% | E = -4.8%

#8 CC1CCCC(NC(=O)c2ccc3c(=O)n(CC4CCCO4)c(=O)[nH]c3c2)C1C (stereo unspecified)
  A = -6.0% | B = 2.2% | C = 25.1µM* | D = -9.9% | E = -0.7%

#9 O=C(COc1coc(CN2CCc3ccccc3C2)cc1=O)N1CCOCC1
  A = 2.0% | B = x | C = 28.2µM* | D = x | E = 3.0%

#10 CCOc1ccccc1NC(=O)COc1coc(CN2CCc3ccccc3C2)cc1=O
  A = 0.0% | B = x | C = u | D = x | E = -0.4%

#11 Cc1ccc(NC(=O)c2cc3c(s2)CCCC3)cc1S(=O)(=O)Nc1ccccc1Cl
  A = 18.8% | B = -7.3% | C = 25.1µM* | D = -1.6% | E = u

#12 COc1ccc(-c2[nH]c3ccccc3c2SCCNC(=O)c2ccc(S(=O)(=O)N(C)C)cc2)cc1
  A = x | B = x | C = -2.5% | D = x | E = x

#13 CCOc1ccc(-c2c(C)nn3c(C)c(C(=O)NCc4ccc(Cl)cc4)cnc23)cc1OCC
  A = x | B = x | C = -7.9% | D = x | E = x

#14 COc1ccc(C2C(=O)N(C3CCC(C)CC3)CC(=O)N2C2CCCC2)cc1OC (stereo unspecified)
  A = x | B = x | C = -1.3% | D = x | E = x

#15 O=C(O)CCNC(=O)c1cncc(Br)c1
  A = 7.9% | B = -0.9% | C = -0.2% | D = -4.6% | E = -0.9%

#16 O=C(O)CCCNC(=O)c1cncc(Br)c1
  A = 5.7% | B = 2.3% | C = 28.2µM* | D = 6.9% | E = -0.3%

#17 CCOC(=O)CCCNC(=O)c1cncc(O)c1
  A = 14.0% | B = 1.0% | C = 31.6µM* | D = -6.3% | E = 7.6%

#18 O=C(NCCCNC(=O)c1cncc(O)c1)c1cncc(O)c1
  A = 6.9% | B = 0.4% | C = x | D = -10.0% | E = 11.0%

#19 NCCC(=O)O
  A = x | B = 17.8% | C = x | D = x | E = x

#20 Cc1cccc(-c2nc(SCC(=O)N(C)c3ccccc3)c3c(=O)n(C)c(=O)n(C)c3n2)c1
  A = x | B = x | C = 1.2% | D = x | E = x

#21 Cc1cc(N)ccc1N1CCCC1
  A = 7.9% | B = -6.1% | C = -2.2% | D = u | E = -0.5%

#22 Cc1cc(N)ccc1-n1c(C)ccc1C
  A = -13.4% | B = u | C = 31.6µM* | D = 7.8% | E = 1.1%

#23 OC(c1ccccc1)(c1nc(-c2cc3ccccc3o2)cs1)C(F)(F)F (stereo unspecified)
  A = x | B = x | C = -13.5% | D = x | E = x

#24 Nc1nonc1-n1nnc(C(=O)N/N=C/c2ccc(Br)cc2)c1-c1ccc2c(c1)OCO2
  A = 7.4% | B = x | C = 25.1µM* | D = -1.0% | E = 2.8%

#25 CCC(=O)Nc1c(C#N)c2nc3ccccc3nc2n1-c1ccccc1C
  A = u | B = 1.1% | C = 3.55µM* | D = 8.4% | E = u

#26 CCCCn1c(NC(=O)c2ccccc2Cl)c(C#N)c2nc3ccccc3nc21
  A = u | B = 26.4% | C = -21.4% | D = 30.2% | E = u

#27 CCCCn1c(NC(=O)CC)c(C#N)c2nc3ccccc3nc21
  A = u | B = 6.7% | C = 15.8µM* | D = 5.2% | E = u

#28 CCCCC(CC)Cn1c(N)c(C#N)c2nc3ccccc3nc21 (stereo unspecified)
  A = u | B = 7.9% | C = 31.6µM* | D = 5.5% | E = u

#29 CCc1cccc(NC(=O)COC(=O)c2ccccc2OCc2ccccc2Br)c1
  A = x | B = x | C = -9.7% | D = x | E = x

#30 Cc1onc(-c2ccccc2Cl)c1C(=O)Nc1nnc(-c2ccc(F)cc2)s1
  A = 12.5% | B = 1.6% | C = -24.3% | D = 22.5% | E = 3.4%

31: Cc1onc(-c2c(F)cccc2Cl)c1C(=O)Nc1nnc(-c2ccccc2)s1
32: Fc1cccc2sc(Nc3nc4cc5c(cc4s3)OCO5)nc12
33: O=C1c2ccccc2CCC1CNCCc1ccc(O)cc1 (stereo unspecified)
34: CCc1[nH]c(=O)c(C#N)c2c1COC(C)(C)C2
35: CC1(C)Cc2c(c(-c3ccco3)[nH]c(=O)c2C#N)CO1
36: COc1cccc(C2=CC(c3ccc(OC)c(OC)c3)NC(=S)N2)c1 (stereo unspecified)
37: COc1ccc(C2=CC(c3ccc(OC)c(OC)c3)NC(=S)N2)cc1 (stereo unspecified)
38: Brc1c(CSc2nncn2-c2ccccc2)nc2sccn12
assay / entry | 31 | 32 | 33 | 34 | 35 | 36 | 37 | 38
Rango dissoc inh | 4.4% | 3.9% | x | -0.5% | u | 7.31µM* | u | -19.2%
CBFb RUNX1 block | -2.9% | 0.5% | 38.9% | -3.3% | -6.2% | 2.2% | -6.0% | 1.3%
ClpP mod | 31.6µM* | 14.1µM* | x | 25.1µM* | -17.4% | -17.2% | 8.3% | -0.8%
MBNL1 CUG block | 24.1% | x | x | -1.0% | 20.5% | x | 43.9% | -2.7%
Rango-impB inh | 0.1% | -0.3% | x | -6.5% | u | u | u | -4.5%

Copied from the entries so far (3 entries):
31: Cc1onc(-c2c(F)cccc2Cl)c1C(=O)Nc1nnc(-c2ccccc2)s1
32: Fc1cccc2sc(Nc3nc4cc5c(cc4s3)OCO5)nc12
33: O=C1c2ccccc2CCC1CNCCc1ccc(O)cc1 (stereo unspecified)
assay / entry | 31 | 32 | 33
Rango dissoc inh | 4.4% | 3.9% | x
CBFb RUNX1 block | -2.9% | 0.5% | 38.9%
ClpP mod | 31.6µM* | 14.1µM* | x
MBNL1 CUG block | 24.1% | x | x
Rango-impB inh | 0.1% | -0.3% | x

New compounds follow:
39: Brc1c(CSc2nc3ccccc3o2)nc2ncccn12
40: Brc1c(CSc2nncn2-c2ccccc2)nc2ncccn12
41: CCN(CC)CCOC(=O)c1ccc(NC(=O)Cn2ncc3c([nH]c4ccc(C)cc43)c2=O)cc1
42: CCOc1ccccc1N(CC)C(=O)c1noc2c1COc1ccc(C)cc1-2
43: COC1CCCCC1NS(=O)(=O)c1ccccc1 (stereo unspecified)
44: CC(=O)c1ccc(NC(=O)CN2C(=O)/C(=C/C=C/c3ccccc3)SC2=S)cc1
45: CN(C(=O)CSc1nncn2c1cc1occc12)c1ccccc1
46: Cc1ccc2nc3c(cc(C(=O)NCC4CCCO4)c(=N)n3C(C)C)c(=O)n2c1 (stereo unspecified)
assay / entry | 39 | 40 | 41 | 42 | 43 | 44 | 45 | 46
Rango dissoc inh | -3.3% | 5.5% | x | x | -11.4% | 20.2% | x | x
CBFb RUNX1 block | 3.4% | 0.9% | x | x | 7.9% | -15.3% | x | x
ClpP mod | 25.1µM* | 10µM* | -27.2% | -5.2% | 28.2µM* | -0.3% | -1.6% | 4.5%
MBNL1 CUG block | 36.5% | 9.6% | x | x | -0.9% | x | x | x
Rango-impB inh | -2.2% | -0.8% | x | x | 0.6% | 29.1µM* | x | x

Records listed so far that bear a hit mark in Rango dissoc inh.
# | Molecule | Rango dissoc inh | CBFb RUNX1 block | Rango-impB inh
36 | COc1cccc(C2=CC(c3ccc(OC)c(OC)c3)NC(=S)N2)c1 (stereo unspecified) | 7.31µM* | 2.2% | u

(continued)
47: CCOC(=O)c1c(NC(=O)c2ccccc2N(C)S(=O)(=O)c2ccccc2)sc2c1CCCC2
48: CCOC(=O)c1c(NC(=O)c2ccc(C)cc2)sc2c1CCCCC2
49: CCOC(=O)c1c(NC(=O)c2ccn(CC)n2)sc2c1CCCC2
50: COc1ccc(C2Nc3ccccc3C(=O)N2Cc2ccco2)cc1COc1c(C)cccc1C (stereo unspecified)
51: Cc1ccc(-c2ccc(CCC(=O)O)o2)cc1
52: O=C(O)CCc1ccc(-c2cccs2)o1
53: Cc1c(NC2=NC3(CCCCC3)Cc3ccccc32)c(=O)n(-c2ccccc2)n1C
assay / entry | 47 | 48 | 49 | 50 | 51 | 52 | 53
Rango dissoc inh | 15.7% | x | -16.9% | x | -8.9% | -8.6% | -11.6%
CBFb RUNX1 block | 24.1% | x | 4.7% | x | -2.2% | -20.6% | -3.1%
ClpP mod | 12.6µM* | -0.3% | 25.1µM* | 4.3% | 15.8µM* | -9.3% | -4.0%
MBNL1 CUG block | u | x | 7.9% | x | 1.6% | -2.8% | -2.1%
Rango-impB inh | -0.4% | x | -0.6% | x | 2.1% | u | 0.3%
